From paper PMC9652212 (Clinical Pharmacokinetics, 2022)

Type: in vivo, human

## OCc1ncc2n1-c1ccc(Cl)cc1C(c1ccccc1F)=NC2 [1’-OH-MDZ, 1’-hydroxymidazolam]
Interindividual variability
  IIV of 1’-OH-MDZ volume of distribution: 39.9 %CV
Population estimate after metabolic conversion of MDZ
  1’-OH-MDZ volume of distribution: 300 L
